Assay results from US20110092595A1, “Compositions and Methods for Treating Lung Cancer” (published 2011).

Legend:
[1] = test system: A549 lung cancer subcutaneous tumor xenografts (HIF1-α negative); details: as reported in U.S. Publication No. 20060104902; cited from earlier work
[2] = test system: PC14-PE6 human lung adenocarcinoma (NSCLC) cells; assay: Orthotopic human lung adenocarcinoma (PC14-PE6) model in nude mice; details: 20 mg/kg/day oral for 5 days
[3] = test system: HT-29 colon cancer subcutaneous tumor xenografts; assay: HT-29 colon cancer subcutaneous tumor xenograft growth; details: 80 or 100 mg/kg daily i.p. for five days; FIG. 3
[4] = test system: A549 lung cancer subcutaneous tumor xenografts (HIF1-α negative); assay: A549 lung cancer subcutaneous tumor xenograft growth; details: 80 or 100 mg/kg daily i.p. for five days; FIG. 3
[5] = test system: NCI-H187 human SCLC cells; assay: Orthotopic human small cell lung cancer (NCI-H187) model in nude mice

Compound: NC(Cc1ccc([N+]([O-])(CCCl)CCCl)cc1)C(=O)O (stereo not shown)
- effect against HIF1-α negative A549 lung cancer xenografts [1]: ineffective
- mediastinal metastasis [2]: markedly reduced mediastinal metastasis
- reduction of median primary lung tumor volume as compared to control ([2]; p=0.005): 87%
- reduction of median left lung weight as compared to control ([2]; p=0.006): 80%
- growth of HT-29 colon cancer subcutaneous tumor xenografts [3]: inhibited the growth
- growth of A549 lung cancer subcutaneous tumor xenografts [4]: but not A549 lung cancer
- preventing lung tumor growth and mediastinal metastasis ([5]; high dose 20 mg/kg/day oral for 5 days): highly effective
- reduction of median primary lung tumor volume as compared to control ([5]; high dose 20 mg/kg/day oral for 5 days, p=0.0001): 99%
- reduction of median left lung weight as compared to control ([5]; high dose 20 mg/kg/day oral for 5 days, p=0.0003): 89%
- preventing lung tumor growth and mediastinal metastasis ([5]; low dose 10 mg/kg/day oral for 5 days): highly effective
